Assay results published in patent publication US6376502B1, “Osteoporosis compounds” (priority 1997, dated 2002).

Protein sequences, listed by entry. Tags and fused reporters are not part of them. Lines headed by an entry give the natural chain unless they say otherwise; changes in a name come on top.
UniProt P43116: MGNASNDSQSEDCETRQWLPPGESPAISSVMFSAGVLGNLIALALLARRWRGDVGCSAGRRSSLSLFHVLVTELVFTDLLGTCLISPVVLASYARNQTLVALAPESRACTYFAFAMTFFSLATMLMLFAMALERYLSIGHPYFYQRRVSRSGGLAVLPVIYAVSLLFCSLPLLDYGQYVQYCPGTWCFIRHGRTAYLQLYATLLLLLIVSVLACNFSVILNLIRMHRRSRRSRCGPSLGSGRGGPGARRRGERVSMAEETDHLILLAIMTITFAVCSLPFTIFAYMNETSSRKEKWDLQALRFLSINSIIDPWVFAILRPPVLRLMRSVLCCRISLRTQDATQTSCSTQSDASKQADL

Target: T1, human EP2 receptor (Homo sapiens, UniProt P43116)
T1 construct: cDNAs representing the complete open reading frames of the human EP2 and EP4 receptors; expressed in transfected cells
Assay: Scatchard analysis of specific [3H]PGE2 binding in 293-S transfectants (EP2 line)
Settings: read-out: Kd for PGE2 (EP2); 293-S line stably overexpressing recombinant human EP2, approximately 338,400 receptors per cell

- Kd: 12 nM
SMILES: CCCCC[C@H](O)/C=C/[C@H]1[C@H](O)CC(=O)[C@@H]1C/C=C\CCCC(=O)O [PGE2, Prostaglandin E2]
